{
  "source": "patent US20190216956A1",
  "about": "“COMPOSITIONS FOR RADIOTHERAPY AND USES THEREOF” (priority 2016, published 2019)",
  "system": "NCI-28H cells",
  "assay": "Cytotoxicity assay (MTS) of NCI-28H cells: carboplatin, mitomycin, gemcitabine, talc, talc bound to drugs (Example 22)",
  "settings": "72 hrs",
  "data": [
    {"compound": "CO[C@@]12[C@H](COC(N)=O)C3=C(C(=O)C(C)=C(N)C3=O)N1C[C@@H]1N[C@@H]12", "note": "[mitomycin]", "values": [
      {"measurement": "cytotoxic effect on NCI-28H cells (comparison)", "result": "clear cytotoxic effect"}
    ]}
  ]
}
